Earlier results, collected in patent US8877908B2, “Stimulus-responsive apta chelamers” (The Administrators of the Tulane Educational Fund, priority 2008, dated 2014).

By UniProt entry, the sequences of proteins in these tests, tags left out. Residues count along the entry.
UniProt P00760, 24-246 limits assumed: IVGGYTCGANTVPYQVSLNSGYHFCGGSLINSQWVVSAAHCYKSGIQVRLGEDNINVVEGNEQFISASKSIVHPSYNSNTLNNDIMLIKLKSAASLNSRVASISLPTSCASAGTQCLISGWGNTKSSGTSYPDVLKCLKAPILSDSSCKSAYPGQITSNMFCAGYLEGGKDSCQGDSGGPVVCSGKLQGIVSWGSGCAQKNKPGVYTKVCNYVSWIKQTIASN

Target: trypsin (Bos taurus, UniProt P00760)
Conditions: read-out: IC50 for trypsin inhibition; Melkko et al. 2007; cited from earlier work

## N=C(N)c1ccc(CNC(=O)CCCCNC(=S)Nc2cccc(I)c2)cc1
  IC50: 800 nM
